SMILES strings stand for the structures.

Sequences of proteins named here, by UniProt entry; tags and fusion partners are left off. A change or cut given only in a name is not applied to a line headed by its entry.
UniProt Q9QYN8: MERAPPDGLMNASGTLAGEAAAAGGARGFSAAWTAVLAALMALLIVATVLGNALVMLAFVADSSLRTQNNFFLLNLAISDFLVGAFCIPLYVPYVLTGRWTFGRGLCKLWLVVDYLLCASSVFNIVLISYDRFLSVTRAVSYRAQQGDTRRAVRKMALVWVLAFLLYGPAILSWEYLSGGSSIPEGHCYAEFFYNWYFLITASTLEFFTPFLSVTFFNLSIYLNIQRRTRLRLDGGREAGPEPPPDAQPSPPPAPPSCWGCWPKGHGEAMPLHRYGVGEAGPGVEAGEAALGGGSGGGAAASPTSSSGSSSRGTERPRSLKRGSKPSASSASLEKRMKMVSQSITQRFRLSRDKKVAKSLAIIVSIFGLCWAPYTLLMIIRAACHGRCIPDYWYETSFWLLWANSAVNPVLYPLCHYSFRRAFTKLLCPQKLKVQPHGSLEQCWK

The assay deals with Histamine H3 receptor (Rattus norvegicus, UniProt Q9QYN8). Kind of assay: Binding affinity at rat cortical Histamine H3 receptor.

Regarding `CN[C@@H]1CCN(CCCOc2ccc(-c3ccc(C#N)cc3)cc2)C1`, the inhibitory constant (Ki) is 29.5 nM.

For orientation: Ki means a measure of affinity in units of concentration, obtained from inhibition or displacement. A high value points to lower affinity.

Source of the values: ChEMBL document CHEMBL1134931, “Aminoalkoxybiphenylnitriles as histamine-3 receptor ligands” (Bioorg Med Chem Lett, 2002).
